Laboratory results published in article PMC4520770.

Protein sequences, listed by entry. Tags and fused reporters are not part of them. Lines headed by an entry give the natural chain unless they say otherwise; changes in a name come on top.
UniProt O43521: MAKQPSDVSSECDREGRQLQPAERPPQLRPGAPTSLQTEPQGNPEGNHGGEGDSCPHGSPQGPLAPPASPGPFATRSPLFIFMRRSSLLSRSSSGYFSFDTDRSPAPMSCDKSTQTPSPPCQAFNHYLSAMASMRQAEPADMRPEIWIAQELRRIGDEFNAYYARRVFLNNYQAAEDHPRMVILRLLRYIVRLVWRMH

Target: Bim_R3bS (UniProt O43521)
Test: fluorescence polarisation

For “M11 (murine gamma herpesvirus γHV68 Bcl-2 homolog), BAP- and His6-tagged (from UniProt P89884 1-171) (natural protein)”, which Kd is on record?
The Kd was 0.21 µM.
